Laboratory results: patent publication US20060073067A1, “Peracid-based large-area decontamination” (published 2006)

System: Bacillus globigii
Assay: Surviving CFU/ml of Bacillus globigii after exposure to PAB
Conditions: 15 minutes exposure to 1 mg/ml PAB; starting concentration 8.5×10^4 CFU/ml (FIG. 1)

With acetyl peroxyborate the “final concentration of surviving colony forming units per milliliter” value was less than 300 CFU/ml.
